The values that follow come from patent US5292729A, “II-bond aromatic vitamin chelates” (Albion International, Inc., priority 1992, dated 1994).

This data set in a line: 65Zn level in blood of rats after oral gavage, scintillation count. The following applies: 2.0 hrs after dosing; oral 0.03 mg Zn, 15 μcuries 65Zn; mean ± standard deviation. The protocol: The chelate thus prepared was diluted such that a 5 μl dose contained about 0.03 mg Zn and 15 μcuries of ^65 Zn activity. This dose, when administered to a standard laboratory rat weighing 150±25 gms, closely approximates the RDA of 15 mg Zn for a human being weighing about 70 kg.
Ten Sprague Dawley rats, weighing 190±10 grams each were divided into two groups of five rats. Five rats were designated the test group and the other five rats the control group.
No surgery was performed as all animals were given light doses of nembutal (40 mg/kg) to improve ease of handling and minimize injury during lavage and bloodletting.
Beginning 30 minutes after dosing and continuing at 30 minute intervals up to a period of 3 hours following dosing, 0.1 ml of blood was withdrawn from rats in both the test and control groups. The blood was then analyzed for ^65 Zn by scintillation count.

`[Cl-].[Cl-].[Zn+2]` [ZnCl2] yielded a 65Zn in blood of 227 ± 18 CCPM.
